Measured values published in article PMC3880591 (Journal of medicinal chemistry, 2013).

By UniProt entry, the sequences of proteins in these tests, tags left out. Where a name states a change or a piece, a line headed by the entry shows the natural chain unless it says otherwise.
UniProt P41145: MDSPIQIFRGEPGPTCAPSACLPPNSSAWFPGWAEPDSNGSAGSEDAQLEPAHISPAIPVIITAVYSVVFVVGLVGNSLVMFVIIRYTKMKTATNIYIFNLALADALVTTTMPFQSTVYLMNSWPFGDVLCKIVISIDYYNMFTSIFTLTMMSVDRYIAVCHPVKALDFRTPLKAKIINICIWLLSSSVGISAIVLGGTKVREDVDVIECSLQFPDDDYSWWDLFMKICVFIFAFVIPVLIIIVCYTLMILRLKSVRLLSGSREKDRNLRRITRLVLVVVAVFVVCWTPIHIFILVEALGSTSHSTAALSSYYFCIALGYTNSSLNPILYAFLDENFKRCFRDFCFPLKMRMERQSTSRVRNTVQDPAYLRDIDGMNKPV

Experiments:
Male Sprague Dawley rats = experiment: ICSS, potentiation of brain stimulation reward by cocaine; type: in vivo, rat; details: cocaine 5.0 mg/kg i.p., 1 hr post-cocaine
human KOR = human KOR (Homo sapiens, UniProt P41145); details: ratio of Ki values; cited from earlier work

| Compound | Effect on ICSS thresholds (Male Sprague Dawley rats) | Selectivity δ/κ (human KOR) |
| --- | --- | --- |
| COC(=O)[C@H]1[C@@H](OC(=O)c2ccccc2)C[C@@H]2CC[C@H]1N2C [Cocaine] | decreased ICSS thresholds |  |
| CCNc1nc2cc3c(cc2s1)C[C@@H]1[C@@H]2CCCC[C@]32CCN1CC1CC1 [Compound 1c] |  | 290 |
